For three compounds, Ki and EC50 results are on record in patent publication US6812210B2, “Urocortin-III and uses thereof” (priority 2001, dated 2004).

Amino acid sequences for entries named in this document (tags omitted). Residues count along the entry.
UniProt P47866, whole entry: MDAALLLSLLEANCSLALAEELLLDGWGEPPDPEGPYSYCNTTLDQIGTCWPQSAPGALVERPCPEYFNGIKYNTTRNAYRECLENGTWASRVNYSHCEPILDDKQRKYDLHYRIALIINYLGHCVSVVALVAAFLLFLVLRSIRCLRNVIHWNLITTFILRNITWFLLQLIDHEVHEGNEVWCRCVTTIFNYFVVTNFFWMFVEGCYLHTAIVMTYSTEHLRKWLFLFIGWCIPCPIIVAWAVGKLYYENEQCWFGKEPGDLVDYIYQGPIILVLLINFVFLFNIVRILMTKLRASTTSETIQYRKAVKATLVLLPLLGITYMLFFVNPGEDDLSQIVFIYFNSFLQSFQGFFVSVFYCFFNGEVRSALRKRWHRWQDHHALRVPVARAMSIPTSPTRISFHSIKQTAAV
UniProt P47866, 1-431 isoform P47866-2: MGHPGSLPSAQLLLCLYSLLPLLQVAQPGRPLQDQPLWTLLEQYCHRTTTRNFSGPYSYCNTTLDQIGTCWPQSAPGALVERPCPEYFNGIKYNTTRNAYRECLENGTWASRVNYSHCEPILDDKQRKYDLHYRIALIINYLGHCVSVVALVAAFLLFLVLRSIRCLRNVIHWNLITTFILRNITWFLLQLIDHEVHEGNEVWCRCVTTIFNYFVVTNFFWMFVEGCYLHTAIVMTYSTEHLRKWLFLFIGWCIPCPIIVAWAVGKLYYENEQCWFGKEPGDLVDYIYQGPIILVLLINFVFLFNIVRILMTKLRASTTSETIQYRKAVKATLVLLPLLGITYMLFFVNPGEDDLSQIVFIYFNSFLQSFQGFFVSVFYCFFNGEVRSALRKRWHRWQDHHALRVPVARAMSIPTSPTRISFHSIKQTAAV
UniProt Q60748, 1-431 isoform Q60748-2: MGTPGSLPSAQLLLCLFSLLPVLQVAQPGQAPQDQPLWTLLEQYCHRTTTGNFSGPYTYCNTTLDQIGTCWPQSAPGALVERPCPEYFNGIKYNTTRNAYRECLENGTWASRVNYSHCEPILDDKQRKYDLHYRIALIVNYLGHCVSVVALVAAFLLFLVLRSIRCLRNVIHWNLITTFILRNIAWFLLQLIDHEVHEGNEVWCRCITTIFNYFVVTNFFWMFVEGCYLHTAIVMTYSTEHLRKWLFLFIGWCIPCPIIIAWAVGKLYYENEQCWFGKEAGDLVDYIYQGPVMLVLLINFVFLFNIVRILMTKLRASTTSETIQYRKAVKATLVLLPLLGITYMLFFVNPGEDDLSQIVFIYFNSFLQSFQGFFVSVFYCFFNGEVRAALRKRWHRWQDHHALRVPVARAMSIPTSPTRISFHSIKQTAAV

Structures are written as SMILES.

Experiment [1] addresses T1, rCRF-R2α (Rattus norvegicus, UniProt P47866). Put plainly: Competitive displacement of [125I-Tyr0,Glu1,Nle17]-sauvagine from membranes of CHO cells stably expressing rCRF-R2α. The note with it: three to six independent experiments; average from log10 values; read-out: Binding to Membranes from CHO cells stably expressing rCRF-R2α (Ki). The method, then: (§1) The synthesized urocortin III was assayed for binding to the CRF-R1, CRF-R2α and CRF-R2β receptors by competitive displacement of ^251I[Tyr^0,Glu^1,Nle^17]sauvagine from Chinese hamster ovary cells stably expressing each receptor type. Stably transfected cell lines expressing CRF-R2α were generously provided by Demitri Grigoriadis, Neurocrine Biosciences Inc. Crude membrane fractions were prepared from Chinese hamster ovary cells stably expressing either cloned human CRF-R1 or mouse CRF-R2β as described (5). Test peptides and radio-ligand, [^125ITyr^0,Glu^1,Nle^17]-sauvagine, diluted in assay buffer (20 mM Hepes/2 mM EGTA/0.1% BSA/10% sucrose, pH 7.6), were combined with membrane fractions (10 μg) in MAGV microtiter plates (Millipore) precoated with 0.1% polyethyleneimine. After 90 min at room temperature, the reaction mixture was filtered and washed twice with assay buffer. The radioligand complex was quantified by gamma-counting. Inhibitory binding constants, Ki's, were determined by […].
(§2) Data from at least 3 experiments were pooled and inhibitory dissociation constant (Ki) values were calculated using the Graphpad Prism program EC50 values. The average of their log10 value was calculated and used to exponentiate the number 10 to determine an ‘average’ EC50 value. The error was determined by calculating the standard deviation of the log10 values, by which the number 10 was exponentiated to determine an error factor. The calculated EC50 was then divided or multiplied by the error factor to determine the lower and upper error bounds, respectively.
In general terms: Displacement assays read how much labelled ligand stays bound in the presence of the test substance.

Experiment [2] has as its target T2, mCRF-R2β (Mus musculus, UniProt Q60748).
T2 construct: expressed in transfected cells
The experiment is described as follows: Competitive displacement of [125I-Tyr0,Glu1,Nle17]-sauvagine from membranes of CHO cells stably expressing mCRF-R2β. The note with it: three to six independent experiments; average from log10 values; read-out: Binding to Membranes from CHO cells stably expressing mCRF-R2β (Ki). The method, then:
as §1, §2

Experiment [3] deals with T2, mCRF-R2β. Put plainly: cAMP accumulation in CHO cells stably expressing mCRF-R2β. The format is cell-based. The conditions noted are these: peptides for 20 min at 37° C. The method, then: (§3) Chinese hamster ovary cells stably transfected with either human CRF-R1 or murine CRF-R2 were plated into 48-well tissue culture dishes (Costar) and allowed to recover for 24 h. The medium was changed at least 2 h before treatments to DMEM/0.1% FBS. The cells were preincubated with 0.1 mM 3-isobutyl-1-methylxanthine for 30 min and then exposed to peptides for 20 min at 37° C. Intracellular cAMP accumulation in CHO cells stably transfected with either CRF-R1 or CRF-R2 was used as a measure of receptor activation. […] The potencies of Ucn II and III to activate CRF-R2α and CRF-R2β are approximately equal and nearly equivalent to that of Ucn. Thus, in the cAMP stimulation assay, both Ucn II and III show 'selectivity for CRF-R2 over CRF-R1, but no preference with respect to CRF-R2α and CRFR-2β. Further, the relative potencies of murine and human Ucn II and Ucn III to functionally activate CRF-R2 overlap in spite of the lower affinity of human Ucn III for binding to CRF-R2.

The target in another experiment is T3, CRF-R2β (Rattus norvegicus, UniProt P47866).
T3 construct: cells expressing endogenous CRF-R1 (cultured primary anterior pituitary cells, (5)) or CRF-R2β (A7r5 cells, (27)); endogenous in cells; host or cells: A7r5 rat aortic smooth muscle cells
Put plainly: cAMP accumulation in A7r5 rat aortic smooth muscle cells expressing endogenous CRF-R2β. The format is cell-based. The method, then: The abilities of Ucn II and Ucn III to activate adenylate cyclase in cells expressing endogenous CRF-R1 (cultured primary anterior pituitary cells, (5)) or CRF-R2β (A7r5 cells, (27)). Rat aortic smooth muscle cells, A7r5, were plated into 48-well culture dishes and allowed to recover for 48 h. Cells were starved in DMEM/0.2% FBS overnight before the experiment. The cells were preincubated with 0.1 mM 3-isobutyl-1-methylxanthine for 30 min and then exposed to peptides for 20 min at 37° C. Rat anterior pituitary cells were established in culture (28) and treated with test peptides for 45 min at 37° C. Intracellular cAMP was extracted from all cells and measured from triplicate wells using a radioimmunoassay kit (Biomedical Technologies). Potencies were determined using the PRISM […].
In general terms: Changes in cAMP serve as a functional read-out for many G protein-coupled receptors.

Experiment [4] addresses T4, hCRF-R1 (Homo sapiens, UniProt P34998).
T4 construct: expressed in transfected cells
T4 sequence (P34998 24-415): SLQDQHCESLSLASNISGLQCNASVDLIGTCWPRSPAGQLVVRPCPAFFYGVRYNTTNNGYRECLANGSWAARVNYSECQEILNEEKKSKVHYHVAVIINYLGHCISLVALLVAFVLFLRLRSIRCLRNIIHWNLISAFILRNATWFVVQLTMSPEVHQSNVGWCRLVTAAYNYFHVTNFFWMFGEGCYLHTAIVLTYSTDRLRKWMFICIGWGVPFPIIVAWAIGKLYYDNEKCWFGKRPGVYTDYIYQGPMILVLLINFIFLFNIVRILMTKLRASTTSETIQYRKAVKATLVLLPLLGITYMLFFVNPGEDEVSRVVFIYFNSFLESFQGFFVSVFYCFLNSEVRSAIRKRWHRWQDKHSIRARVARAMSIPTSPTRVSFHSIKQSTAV
The experiment is described as follows: cAMP accumulation in CHO cells stably expressing hCRF-R1. In kind it is cell-based. The note with it: peptides for 20 min at 37° C.

Experiment [5] concerns the target T4, hCRF-R1. The experiment is described as follows: Competitive displacement of [125I-Tyr0,Glu1,Nle17]-sauvagine from membranes of CHO cells stably expressing hCRF-R1. The note with it: three to six independent experiments; average from log10 values; read-out: Binding to Membranes from CHO cells stably expressing hCRF-R1 (Ki).
Experiment [6] concerns the target T1, rCRF-R2α. The experiment is described as follows: cAMP accumulation in CHO cells stably expressing rCRF-R2α. The format is cell-based. The note with it: peptides for 20 min at 37° C. The method, then:
as §3

With `CC[C@H](C)[C@H](NC(=O)[C@H](CCC(N)=O)NC(=O)[C@H](C)NC(=O)[C@H](CC(N)=O)NC(=O)[C@@H](NC(=O)[C@H](C)NC(=O)[C@H](C)NC(=O)[C@H](CCC(N)=O)NC(=O)[C@H](CC(N)=O)NC(=O)[C@H](CCCNC(=N)N)NC(=O)[C@H](C)NC(=O)[C@H](C)NC(=O)[C@H](CCCCN)NC(=O)[C@H](Cc1ccc(O)cc1)NC(=O)[C@H](CCCNC(=N)N)NC(=O)[C@H](C)NC(=O)[C@H](CCC(N)=O)NC(=O)[C@H](CCC(=O)O)NC(=O)[C@H](CC(C)C)NC(=O)[C@H](CC(C)C)NC(=O)[C@@H](NC(=O)[C@H](CCCNC(=N)N)NC(=O)[C@H](CC(C)C)NC(=O)[C@H](CC(C)C)NC(=O)CNC(=O)[C@@H](NC(=O)[C@@H]1CCCN1C(=O)[C@@H](NC(=O)[C@H](CC(=O)O)NC(=O)[C@H](CC(C)C)NC(=O)[C@H](CO)NC(=O)[C@H](CC(C)C)NC(=O)[C@@H](NC(=O)[C@@H](N)C(C)C)[C@@H](C)CC)C(C)C)[C@@H](C)CC)[C@@H](C)CC)[C@@H](C)O)C(=O)N[C@@H](CC(C)C)C(=O)N[C@@H](C)C(=O)N[C@@H](Cc1c[nH]cn1)C(=O)N[C@H](C(N)=O)C(C)C` [Urocortin II (mouse), Mouse Urocortin II, reference compound], the Ki is 2.1 nM at rCRF-R2α [1], 0.66 nM at mCRF-R2β [2] and > 100 nM on hCRF-R1 [5]. The EC50 on mCRF-R2β [3] is 0.05 nM; at CRF-R2β, 0.18 nM; on hCRF-R1 [4], > 100 nM; at rCRF-R2α [6], 0.14 nM.

On to `CC[C@H](C)[C@H](NC(=O)[C@H](CCC(N)=O)NC(=O)[C@H](C)NC(=O)[C@H](CCSC)NC(=O)[C@H](CC(C)C)NC(=O)[C@H](Cc1c[nH]cn1)NC(=O)[C@H](C)NC(=O)[C@H](CC(N)=O)NC(=O)[C@H](C)NC(=O)[C@H](C)NC(=O)[C@H](C)NC(=O)[C@H](CCC(N)=O)NC(=O)[C@H](C)NC(=O)[C@H](CCCNC(=N)N)NC(=O)[C@H](CC(C)C)NC(=O)[C@H](CC(N)=O)NC(=O)[C@H](CCCCN)NC(=O)[C@H](C)NC(=O)[C@H](CCCCN)NC(=O)[C@H](C)NC(=O)[C@@H](NC(=O)[C@H](CC(N)=O)NC(=O)[C@H](Cc1ccccc1)NC(=O)[C@H](CC(C)C)NC(=O)[C@H](CC(C)C)NC(=O)[C@H](CC(N)=O)NC(=O)[C@H](CCSC)NC(=O)[C@@H](NC(=O)[C@H](CC(N)=O)NC(=O)[C@@H](NC(=O)[C@@H]1CCCN1C(=O)[C@@H](NC(=O)[C@H](CC(=O)O)NC(=O)[C@H](CC(C)C)NC(=O)[C@H](CO)NC(=O)[C@H](CC(C)C)NC(=O)[C@@H](NC(=O)[C@@H](N)Cc1ccccc1)[C@@H](C)O)C(C)C)[C@@H](C)O)[C@@H](C)CC)[C@@H](C)CC)C(N)=O` [Urocortin III (human), Human urocortin III], for which the Ki on rCRF-R2α [1] was 21.7 nM; on mCRF-R2β [2] it was 13.5 nM; at hCRF-R1 [5] it was > 100 nM. Besides, the EC50 was 0.12 nM at mCRF-R2β [3], 80.9 nM on CRF-R2β, > 100 nM on hCRF-R1 [4] and 0.16 nM at rCRF-R2α [6].

Consider `CC[C@H](C)[C@H](NC(=O)[C@H](CCC(N)=O)NC(=O)[C@H](C)NC(=O)[C@H](CCSC)NC(=O)[C@H](CC(C)C)NC(=O)[C@H](CCC(N)=O)NC(=O)[C@H](C)NC(=O)[C@H](CC(N)=O)NC(=O)[C@H](C)NC(=O)[C@H](C)NC(=O)[C@H](C)NC(=O)[C@H](CCCCN)NC(=O)[C@H](C)NC(=O)[C@H](CCCNC(=N)N)NC(=O)[C@H](CC(C)C)NC(=O)[C@H](CC(N)=O)NC(=O)[C@H](CCCCN)NC(=O)[C@H](C)NC(=O)[C@H](CCCCN)NC(=O)[C@H](CC(=O)O)NC(=O)[C@@H](NC(=O)[C@H](CC(N)=O)NC(=O)[C@H](Cc1ccccc1)NC(=O)[C@H](CC(C)C)NC(=O)[C@@H](NC(=O)[C@H](CC(N)=O)NC(=O)[C@H](CCSC)NC(=O)[C@@H](NC(=O)[C@H](CC(N)=O)NC(=O)[C@@H](NC(=O)[C@@H]1CCCN1C(=O)[C@@H](NC(=O)[C@H](CC(=O)O)NC(=O)[C@H](CC(C)C)NC(=O)[C@H](CO)NC(=O)[C@H](CC(C)C)NC(=O)[C@@H](NC(=O)[C@@H](N)Cc1ccccc1)[C@@H](C)O)C(C)C)[C@@H](C)O)[C@@H](C)CC)[C@@H](C)CC)[C@@H](C)CC)C(N)=O` [Urocortin III (mouse), Mouse urocortin III], for which the results for the Ki at rCRF-R2α [1], at mCRF-R2β [2] and at hCRF-R1 [5] were 5 nM, 1.8 nM and > 100 nM, respectively. Also, the EC50 at mCRF-R2β [3] was 0.081 nM; at CRF-R2β, 3.7 nM; at hCRF-R1 [4] it was > 100 nM; at rCRF-R2α [6], 0.073 nM.

What is called Ki is a measure of affinity in units of concentration, obtained from inhibition or displacement. The EC50 is the midpoint of the concentration-response curve. Low readings indicate higher potency in that assay, high ones lower potency in that assay.
